# Source: PubChem BioAssay AID720648 (The Scripps Research Institute Molecular Screening Center, 2013)
# The chains behind the UniProt entries cited, without tags or fusion partners. Where a name states a change or a piece, a line headed by the entry shows the natural chain unless it says otherwise.
# UniProt P78536: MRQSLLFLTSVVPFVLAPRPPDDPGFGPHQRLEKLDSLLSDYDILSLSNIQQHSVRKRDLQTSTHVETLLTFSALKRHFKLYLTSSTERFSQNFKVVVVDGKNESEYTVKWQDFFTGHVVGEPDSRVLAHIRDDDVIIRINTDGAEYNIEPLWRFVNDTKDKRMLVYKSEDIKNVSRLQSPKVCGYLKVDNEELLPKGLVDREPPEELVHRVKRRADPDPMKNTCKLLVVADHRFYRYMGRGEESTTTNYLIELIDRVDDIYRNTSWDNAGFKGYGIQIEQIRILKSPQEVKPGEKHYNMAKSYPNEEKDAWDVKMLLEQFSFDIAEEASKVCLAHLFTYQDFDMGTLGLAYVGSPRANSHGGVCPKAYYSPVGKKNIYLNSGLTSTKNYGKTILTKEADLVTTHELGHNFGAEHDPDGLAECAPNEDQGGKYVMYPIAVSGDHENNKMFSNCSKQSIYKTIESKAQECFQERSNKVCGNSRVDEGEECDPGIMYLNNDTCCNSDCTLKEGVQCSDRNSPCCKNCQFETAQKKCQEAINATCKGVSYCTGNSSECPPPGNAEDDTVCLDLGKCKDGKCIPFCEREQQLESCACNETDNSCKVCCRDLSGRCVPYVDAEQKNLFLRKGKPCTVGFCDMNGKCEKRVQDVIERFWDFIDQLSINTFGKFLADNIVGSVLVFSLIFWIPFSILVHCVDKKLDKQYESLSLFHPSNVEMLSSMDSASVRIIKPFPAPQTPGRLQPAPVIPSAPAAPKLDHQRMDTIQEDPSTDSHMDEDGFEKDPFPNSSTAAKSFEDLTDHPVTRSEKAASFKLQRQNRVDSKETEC
# The entries are a selection whose mix differs from that of the whole data set. Calls of active or inactive are those of the source.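 The calls were made as follows: active = inhibition above the mean of compounds lying between control limits plus 3 SD, set per campaign (cut at about 8.5% in these data); inactive = the rest.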
# Target: Disintegrin and metalloproteinase domain-containing protein 17 (Homo sapiens) (UniProt P78536)
# Experiment: ADAM17 inhibitors, primary screen, biochemical, QFRET (AID 720648);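 also: 0% = DMSO-only wells as the low control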
# Conditions: recombinant ADAM17, EDANS/DABCYL FRET peptide cleavage; at 6.95 µM; active compounds read high
row,Structure (SMILES),inhibition
1,O=P(Nc1nc2ccccc2s1)(c1ccccc1)c1ccccc1,inactive: -5.4%
2,C[C@H]1OP(=O)(Oc2ccccc2)[C@H](O)[C@H](O)[C@H]1N=[N+]=[N-] (some centres not stated),inactive: -4.66%
3,O=[N+]([O-])c1ncn(CCn2ncnc2[N+](=O)[O-])n1,inactive: -5.04%
4,CC(C)(C)C(=O)NC(Sc1ccncn1)C(Cl)(Cl)Cl (configuration not stated),inactive: -0.47%
5,O=C(O)CNc1ccc([As](=O)(O)O)cc1,inactive: -5.74%
6,O=[N+]([O-])c1cccc(NC2=NCC(CBr)S2)c1 (configuration not stated),inactive: -6.03%
7,COC(=O)C1(C)COP(=O)(Nc2ccccc2)OC1 (configuration not stated),inactive: -5.22%
8,O=P1(N(CCCl)CCCl)OCCCS1 (configuration not stated),inactive: -1.12%
9,O=C(Nc1cc([As](=O)(O)O)ccc1O)c1ccccc1,inactive: 0.68%
10,CCN(/C(=N/P(=O)(N1CCOCC1)N1CCOCC1)N1CCOCC1)c1ccc(OC)cc1,inactive: 2.1%
11,Nc1ccc([As](=O)(O)c2ccc(N)cc2)cc1,inactive: -6.97%
12,C[N+]1=C2C=CC=CC=C2SC12C([N+](=O)[O-])=CC([N+](=O)[O-])=C[C-]2[N+](=O)[O-] (configuration not stated),inactive: 2.44%
13,c1cc(-c2nn[nH]n2)ccc1-c1nn[nH]n1,inactive: -2.09%
14,CC1CCN(C(=O)Oc2c(Cl)cc(Cl)c3cccnc23)CC1,inactive: -1.62%
15,CC(C)=N/N=C(\N)N[N+](=O)[O-],inactive: 0.86%
16,CC(C)c1nc(Nc2ccccc2)n(P(=O)(N(C)C)N(C)C)n1,inactive: 1.75%
17,CN(C)C(=O)OCCc1n(C)cc[n+]1C,inactive: -0.79%
18,COc1ccc(C2=NCC(CBr)S2)cc1 (configuration not stated),inactive: -5.63%
19,Cc1ccc(NP(=O)(Oc2ccccc2)Oc2ccccc2)nc1,inactive: -7.4%
20,CCc1nc2c(n1)c1c(non1O)c1c2no[n+]1[O-],inactive: -3.05%
21,O=[N+]([O-])c1cc([N+](=O)[O-])c(CCNc2ccccc2)c([N+](=O)[O-])c1,active: 9.95%
22,O=[N+]([O-])c1cccc2n[nH]nc12,inactive: -2.61%
23,CC(=O)N1C2C3N(C(C)=O)C1C1N(C(C)=O)C(C(N1C(C)=O)N3C(C)=O)N2C(C)=O,inactive: 1.2%
24,Oc1ccccc1CNc1ccccn1,inactive: -3.22%

row,Structure (SMILES),inhibition
1,O=C(NC(Sc1ccncn1)C(Cl)(Cl)Cl)c1ccccc1 (configuration not stated),inactive: 0.31%
2,CC(C)CC(=O)NC(Sc1ccc(Cl)cc1)C(Cl)(Cl)Cl (configuration not stated),inactive: -1.78%
3,Nc1cc(N)c2nonc2c1[N+](=O)[O-],inactive: -1.47%
4,CN(C(=O)Cc1ccc(Cl)c(Cl)c1)[C@H]1CCCC[C@H]1N1CCCC1,inactive: 4.18%
5,Cc1ccc(N/C(=N/P(=O)(N2CCOCC2)N2CCOCC2)N2CCOCC2)cc1,inactive: -2.73%
6,NC(=O)c1cc([N+](=O)[O-])cc([N+](=O)[O-])c1N,inactive: 2.53%
7,Clc1ccc(Cl)c(NC2=NCC(CBr)S2)c1 (configuration not stated),inactive: -3.03%
8,CN1CCCC(OC(=O)C(c2ccccc2)c2ccccc2)C1 (configuration not stated),inactive: -1.48%
9,COc1ccccc1OP(=O)(Nc1ccc(C)cn1)Oc1ccccc1OC,inactive: -4.04%
10,Cc1ccc(OP(=O)(Nc2nccs2)Oc2ccc(C)cc2)cc1,inactive: -3.06%
11,Nc1cccc2ccc([As](=O)(O)O)cc12,inactive: -160%
12,CN(C(=O)Cc1ccccc1)C1CC[C@@]2(CCCO2)C[C@@H]1N1CCCC1 (some centres not stated),inactive: -0.42%
13,CCN(N=Nc1nonc1N)c1nonc1N,inactive: 3.2%
14,CN(C)P(=O)(N(C)C)n1c(Nc2ccccc2)nnc1-c1ccccc1,inactive: 0.19%
15,O=P(Nc1nc2ccc(Cl)cc2s1)(c1ccccc1)c1ccccc1,inactive: 5.14%
16,O=C(O)c1ccccc1[As](=O)(O)O,inactive: -0.16%
17,CC(=O)Nc1ccc([As](=O)(O)O)cc1,inactive: -5.72%
18,CCCC1OP(N)(=O)OCC1CC (configuration not stated),inactive: -1.69%
19,CCn1c(=O)n(C2CCN(CC3CCCCCCC3)C[C@H]2CO)c2ccccc21 (some centres not stated),inactive: 0.55%
20,CCOP(=O)(Nc1ccccc1)OCC,inactive: 2%
21,Cc1cc(SC(NC(=O)c2ccc(F)cc2)C(Cl)(Cl)Cl)ncn1 (configuration not stated),inactive: -2.45%
22,Cc1ccc(NP(=O)(Oc2ccccc2F)Oc2ccccc2F)nc1,inactive: -3.23%
23,CN(C(=O)Cc1ccc(Cl)c(Cl)c1)[C@H]1CCCC[C@@H]1N1CCCC1,inactive: -9.09%
